Laboratory results taken from patent US20090048164A1.
Where two headings read alike, the source gives them in different places.

The chains behind the UniProt entries cited, without tags or fusion partners. Residues count along the entry.
UniProt P97287, 152-308: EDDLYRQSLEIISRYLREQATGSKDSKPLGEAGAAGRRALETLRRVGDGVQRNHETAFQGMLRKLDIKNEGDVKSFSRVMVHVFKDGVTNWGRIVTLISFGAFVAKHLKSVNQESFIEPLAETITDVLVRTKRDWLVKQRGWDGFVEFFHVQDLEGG

Tests used:
Assay in all cases: competition phage ELISA
Bcl-w = molecular target: Bcl-w
Bcl-2 = molecular target: Bcl-2
[1] = molecular target: mouse Mcl-1 with truncations of 151 amino acid residues at its N-terminus and 23 residues at its C-terminus (mouse) (UniProt P97287)
[2] = molecular target: mouse Mcl-1 with truncations of 151 amino acid residues at its N-terminus and 23 residues at its C-terminus (mouse) (UniProt P97287); remark: listed apart in the source

Bim BH3 wild type, phage-displayed (peptide)
IC50 (Bcl-w): 20 nM | IC50 (Bcl-2): 5 nM | IC50 [1]: 9 nM | IC50 [2]: 10 nM
